Chains of the proteins cited; added tags and fusions are not shown. Residues count along the entry.
UniProt Q04609, 44-750 limits assumed: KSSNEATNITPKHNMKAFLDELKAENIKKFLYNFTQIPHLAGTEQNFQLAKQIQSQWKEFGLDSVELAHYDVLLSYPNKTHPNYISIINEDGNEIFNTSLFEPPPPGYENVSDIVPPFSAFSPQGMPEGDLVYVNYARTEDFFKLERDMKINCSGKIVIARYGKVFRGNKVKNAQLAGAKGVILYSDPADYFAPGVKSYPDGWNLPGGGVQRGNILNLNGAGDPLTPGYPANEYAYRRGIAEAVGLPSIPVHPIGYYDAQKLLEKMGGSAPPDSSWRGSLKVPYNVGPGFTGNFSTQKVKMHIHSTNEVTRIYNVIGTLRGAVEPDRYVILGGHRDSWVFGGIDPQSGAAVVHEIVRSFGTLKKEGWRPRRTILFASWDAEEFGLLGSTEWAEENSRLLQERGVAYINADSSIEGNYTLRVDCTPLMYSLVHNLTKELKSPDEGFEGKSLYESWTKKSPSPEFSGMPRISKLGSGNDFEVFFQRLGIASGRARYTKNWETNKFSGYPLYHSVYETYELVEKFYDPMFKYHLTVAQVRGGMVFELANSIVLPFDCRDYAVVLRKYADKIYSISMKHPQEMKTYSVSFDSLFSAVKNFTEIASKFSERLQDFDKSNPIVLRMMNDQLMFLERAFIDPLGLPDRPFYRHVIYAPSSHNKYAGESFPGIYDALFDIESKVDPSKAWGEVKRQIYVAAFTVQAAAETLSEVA

According to paper PMC3723849, “Evaluation of Phage Display Discovered Peptides as Ligands for Prostate-Specific Membrane Antigen (PSMA)” (PLoS ONE, 2013):

Key:
[1] = test system: LNCaP cells (PSMA positive); assay: Immunofluorescence microscopy of phage clone binding; assay type: cell-based, human; settings: 10^9 cfu; for Effect of soluble PSMA on phage clone binding to LNCaP cells: round 2 clones, 37°C 2 h, pre-incubation with PSMA-His6 100 nM, P<0.05; for Phage clone binding to LNCaP cells: round 3 clones, 37°C, 2 h
Method: (§1) The binding and cellular internalization study of phage clones and 5-FAM labeled peptides was performed as described previously. Briefly, LNCaP and PC-3 cells (1×10^4 cells/well) were grown on LabTek 8-chamber slides (Nunc Inc. Rochester, NY) overnight prior to the experiment. To determine the binding and internalization of phage clones, each clone (10^9 cfu) was incubated with LNCaP or PC-3 cells adherent in chamber slides (37°C, 2 h). After rinsing (PBS), the cells were fixed and permeabilized (4% paraformaldehyde, 0.01% Triton-X, 15 min) and blocked (5% BSA, TBS). To visualize the surface bound and internalized phage clones, the fixed and permeabilized cells were treated with either biotinylated rabbit anti-Fd bacteriophage antibody and Alexa 488 conjugated to streptavidin, or rabbit monoclonal anti-PSMA antibody (primary antibody) with TRITC labeled donkey anti-Rabbit IgG (secondary antibody). To inhibit the specific binding of the phage clones, the cells were pre-incubated with PSMA-His6 (100 nM, 2 hours, 37°C) before adding the phage clones. To quantify the fluorescence, the relative fluorescence unit (rfu) in the LNCap cells was measured with the software in Olympus FV1000 confocal scanning microscope.. Regions of interest were drawn in ten cells to determine the rfu values.

[2] = test system: PC3 cells (PSMA negative); assay: as above; assay type: cell-based, human; settings: round 3 clones, 10^9 cfu, 37°C, 2 h, same input as for LNCaP
Method: as §1

[3] = Aqueous solubility as observed when handling the peptides; assay type: physicochemical; settings: qualitative, aqueous buffers
PSMA-His6 = PSMA-His6 (Homo sapiens, UniProt Q04609); assay: PSMA enzyme assay (NAAG hydrolysis, Amplex Red glutamate detection); assay type: biochemical; set-up: A 15-mer library was screened against the soluble ectodomain of PSMA; purchased R&D Systems; settings: Peptide 562 tetramer compared with peptide 562 monomer
Method: The glutamic acid/glutamate released from the natural substrate of PSMA, NAAG (N-acetylaspartylglutamate), was analyzed by the fluorescence-based Amplex Red Glutamic Acid/Glutamate Oxidase assay kit (Invitrogen) as previously described, [22], [32], [33]. […] Then NAAG (4 µM, 10 µL) was added to the peptide/PSMA-His6 mixture (37°C, 30 min). The enzymatic reaction was quenched (500 mM NaH2PO4/Na2HPO4, pH 7.4, 10 µL). […] Data was analyzed by non-linear regression with GraphPad Prism.

[4] = test system: LNCaP cells (PSMA positive); assay: Binding and internalization of 5-FAM labeled peptides by confocal microscopy; assay type: cell-based, human; settings: 1 µM 5-FAM labeled peptide, 1 h, 37°C
Method: To determine whether the discovered peptides from the third round of screening bound PSMA-positive LnCAP cells and co-internalized with PSMA, the 5-FAM labeled peptides (DMSO∶TBS 80∶20, v/v) were diluted in culture medium (1 µM) and incubated with adherent LNCaP cells in 8-well chamber slides (1 h, 37°C). After rinsing with PBS, the cells were fixed (4% paraformaldehyde, 15 min) and permeabilized (0.01% Triton-X, 15 min). Non-specific binding sites were blocked (5% BSA, TBS, 1 h), and then the cells were incubated with 1∶1000 rabbit monoclonal anti-PSMA antibody (primary antibody, 3% BSA, TBS, 1 h). After rinsing (PBS), the cells were incubated with 1∶1000 TRITC labeled donkey anti-Rabbit IgG (secondary antibody, 3% BSA, TBS, 1 h). After rinsing with PBS, the cells were mounted (50% glycerol, PBS), covered with coverslips, and sealed with nail polish. Confocal laser scanning microscopy (Olympus FV1000) was used to analyze all samples. We also used z-stack images to determine the extracellular and intracellular locations of the 5-FAM labeled peptides.

Compound | Phage clone binding to LNCaP cells [1] | Phage clone binding to PC3 cells [2] | further results
GTAVASRVYSLHSLM [Clone 2, phage clone from round 2 of panning displaying […]] |  |  | Effect of soluble PSMA on phage clone binding to LNCaP cells [1]: inhibited the binding
SHSFSVGSGSGDHSP [Clone E] | bound specifically to LNCaP cells | not PC3 cells | 
ARLSHRPSYLLVCA [Clone 1, phage clone from round 2 of panning displaying […]] |  |  | Effect of soluble PSMA on phage clone binding to LNCaP cells [1]: inhibited the binding
CC(=O)NCSC[C@H](NC(=O)[C@H](CO)NC(=O)[C@H](Cc1ccccc1)NC(=O)[C@H](Cc1ccccc1)NC(=O)[C@H](CO)NC(=O)[C@@H](N)CC(C)C)C(=O)N[C@@H](Cc1c[nH]c2ccccc12)C(=O)N[C@@H](CC(C)C)C(=O)N[C@@H](CCCNC(=N)N)C(=O)N[C@@H](CCCNC(=N)N)C(=O)N[C@@H](CO)C(=O)N[C@@H](Cc1ccccc1)C(=O)N[C@@H](CO)C(=O)N[C@@H](CC(C)C)C(=O)N[C@H](C(N)=O)[C@@H](C)O [Peptide 564] |  |  | Aqueous solubility [3]: limited water solubility
CC(C)[C@H](NC(=O)[C@H](CO)NC(=O)[C@H](Cc1ccccc1)NC(=O)[C@H](CO)NC(=O)[C@H](Cc1c[nH]cn1)NC(=O)[C@@H](N)CO)C(=O)NCC(=O)N[C@@H](CO)C(=O)NCC(=O)N[C@@H](CC(=O)O)C(=O)N[C@@H](Cc1c[nH]cn1)C(=O)N[C@@H](CO)C(=O)N1CCC[C@H]1C(=O)N[C@@H](Cc1ccccc1)C(=O)N[C@H](C(=O)NCC(=O)NCC(=O)NCC(=O)N[C@@H](CO)C(=O)NCCOCCOCCOCCOCCOCCOCCC(=O)N[C@@H](CSC1CC(=O)N(CCC(=O)NCCCC[C@H](NC(=O)CCN2C(=O)CC(SC[C@H](NC(=O)CCOCCOCCOCCOCCOCCOCCNC(=O)[C@H](CO)NC(=O)CNC(=O)CNC(=O)CNC(=O)[C@@H](NC(=O)[C@H](Cc3ccccc3)NC(=O)[C@@H]3CCCN3C(=O)[C@H](CO)NC(=O)[C@H](Cc3c[nH]cn3)NC(=O)[C@H](CC(=O)O)NC(=O)CNC(=O)[C@H](CO)NC(=O)CNC(=O)[C@@H](NC(=O)[C@H](CO)NC(=O)[C@H](Cc3ccccc3)NC(=O)[C@H](CO)NC(=O)[C@H](Cc3c[nH]cn3)NC(=O)[C@@H](N)CO)C(C)C)[C@@H](C)O)C(N)=O)C2=O)C(=O)NCCCC[C@H](NC(=O)[C@H](CCCCNC(=O)CCN2C(=O)CC(SC[C@H](NC(=O)CCOCCOCCOCCOCCOCCOCCNC(=O)[C@H](CO)NC(=O)CNC(=O)CNC(=O)CNC(=O)[C@@H](NC(=O)[C@H](Cc3ccccc3)NC(=O)[C@@H]3CCCN3C(=O)[C@H](CO)NC(=O)[C@H](Cc3c[nH]cn3)NC(=O)[C@H](CC(=O)O)NC(=O)CNC(=O)[C@H](CO)NC(=O)CNC(=O)[C@@H](NC(=O)[C@H](CO)NC(=O)[C@H](Cc3ccccc3)NC(=O)[C@H](CO)NC(=O)[C@H](Cc3c[nH]cn3)NC(=O)[C@@H](N)CO)C(C)C)[C@@H](C)O)C(N)=O)C2=O)NC(=O)CCN2C(=O)CC(SC[C@H](NC(=O)CCOCCOCCOCCOCCOCCOCCNC(=O)[C@H](CO)NC(=O)CNC(=O)CNC(=O)CNC(=O)[C@@H](NC(=O)[C@H](Cc3ccccc3)NC(=O)[C@@H]3CCCN3C(=O)[C@H](CO)NC(=O)[C@H](Cc3c[nH]cn3)NC(=O)[C@H](CC(=O)O)NC(=O)CNC(=O)[C@H](CO)NC(=O)CNC(=O)[C@@H](NC(=O)[C@H](CO)NC(=O)[C@H](Cc3ccccc3)NC(=O)[C@H](CO)NC(=O)[C@H](Cc3c[nH]cn3)NC(=O)[C@@H](N)CO)C(C)C)[C@@H](C)O)C(N)=O)C2=O)C(=O)NCCC(=O)O)C1=O)C(N)=O)[C@@H](C)O (stereo partly shown) [(562)4] |  |  | Improvement of enzyme inhibition IC50 of tetramer over monomer (PSMA-His6): 2 fold
SHSFSVGSG DHSPFT [Clone H] | bound specifically to LNCaP cells | not PC3 cells | 
CC[C@H](C)[C@H](NC(=O)[C@H](CSCNC(C)=O)NC(=O)[C@H](CCCNC(=N)N)NC(=O)[C@H](CCSC)NC(=O)[C@H](CC(C)C)NC(=O)[C@H](Cc1ccccc1)NC(=O)[C@H](CC(C)C)NC(=O)[C@H](CC(C)C)NC(=O)[C@H](Cc1ccccc1)NC(=O)[C@H](CCSC)NC(=O)[C@H](CCCNC(=N)N)NC(=O)[C@H](C)N)C(=O)NCC(=O)N[C@@H](CSCNC(C)=O)C(=O)N[C@@H](Cc1ccc(O)cc1)C(N)=O [Peptide 565] |  |  | Aqueous solubility [3]: relatively insoluble in aqueous buffers
5FAM-562: peptide 562 conjugated with 5-carboxyl fluorescein on the N-terminal amine (SHSFSVGSGDHSPFT; 5-carboxyfluorescein (5-FAM) on the N-terminal amine) [Peptide 5FAM-562] |  |  | Binding and internalization in LNCaP cells ([4]; confocal microscopy): bound and internalized in LNCaP cells; Co-localization with PSMA ([4]; PSMA visualized with anti-PSMA-Mab): co-localized with PSMA in intracellular vesicles
EVPRLSLLAVFLVAN [Clone L] | bound specifically to LNCaP cells | not PC3 cells | 
EVPRLSLLAVFLCNG [Clone J, phage clone from round 3 of panning] | bound specifically to LNCaP cells | not PC3 cells | 
LSFFSCWLRRSFSLT [Clone G, phage clone from round 3 of panning] | bound specifically to LNCaP cells | not PC3 cells | 
ARMFLLFLMRCIGCY [Clone C, phage clone from round 3 of panning] | bound specifically to LNCaP cells | not PC3 cells | 
